## scFv variants of Ab-91 (heavy chain) against a SARS-CoV-2 spike peptide

The measurements come from Engelhart et al. 2022 (doi:10.1038/s41597-022-01779-4) through the FLAb antibody collection.

Antigen: PDVDLGDISGINAS, a 14-residue peptide of the SARS-CoV-2 spike HR2 region.

The variants keep the light chain, the linker and the frameworks of Ab-91 (scFv order VL, a (GGGGS)3 linker, VH).
VL: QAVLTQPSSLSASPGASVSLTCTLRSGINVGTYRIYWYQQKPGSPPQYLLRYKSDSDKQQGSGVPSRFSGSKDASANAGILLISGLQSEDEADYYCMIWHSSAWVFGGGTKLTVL
VH: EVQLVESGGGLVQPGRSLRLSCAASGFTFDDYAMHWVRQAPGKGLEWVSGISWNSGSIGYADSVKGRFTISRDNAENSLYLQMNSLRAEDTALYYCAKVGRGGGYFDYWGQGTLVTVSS

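Phage display of a naive human antibody library on the peptide gave the parent. The library (AAYL51) carries one to three amino acid substitutions per variant, with no insertions or deletions. The assay is AlphaSeq: two haploid yeast populations carry antibody and antigen on their surface. Mating (16 h, 30 °C) was followed by selection of diploids and sequencing of their barcodes. A regression on co-assayed BCL2-family reference pairs converts the normalised counts of each replicate to an apparent Kd. There are three technical replicates.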

Substitutions are numbered in sequence along the VH above, starting at 1 (not Kabat).
All variants listed here change M34 of the VH, counted from its first residue.
Each Kd is an estimate from the mating assay, the geometric mean of the replicates in which the pair was seen; lower is stronger.
A pair that was not seen in any replicate is written "no signal"; this usually means weak binding, but a binder can also be missed.
As a blank, each scFv also met three strains without target: over library AAYL51, 21% of these pairings were detected, typically at 34 µM and seldom below 1.8 µM.

- M34W G50V S57C -> no signal (0 of 3 replicates)
- M34G -> 66 µM (3 of 3 replicates)
- F29M D30E M34V -> 74 µM (2 of 3 replicates)
- M34A I51G G104I -> no signal (0 of 3 replicates)
- M34C I58Y G103I -> 35 µM (2 of 3 replicates)
- D30C M34R V64D -> 430 µM (2 of 3 replicates)
- M34A R101T -> 2.9 µM (3 of 3 replicates)
- D31V M34G G104D -> no signal (0 of 3 replicates)
- G26A M34C G102N -> no signal (0 of 3 replicates)
- A33K M34G S52E -> no signal (0 of 3 replicates)
- M34W D107Y Y108K -> no signal (0 of 3 replicates)
- M34S I51H -> no signal (0 of 3 replicates)
- D30W M34Q I58C -> 86 µM (1 of 3 replicates)
- M34R S52F -> no signal (0 of 3 replicates)
- D31Q M34K G59S -> 6.8 µM (1 of 3 replicates)
- M34C Y60V D62V -> 21 µM (1 of 3 replicates)
- M34S G56P I58E -> 3.4 µM (1 of 3 replicates)
- F29L M34K D107W -> no signal (0 of 3 replicates)
- M34E I51E S63K -> no signal (0 of 3 replicates)
- M34G G104R -> 4.5 µM (2 of 3 replicates)
- D30M M34Y Y60A -> no signal (0 of 3 replicates)
- M34H F106K D107Y -> 130 µM (2 of 3 replicates)
- F29G D30Y M34T -> no signal (0 of 3 replicates)
- M34E N54G D62M -> 170 µM (1 of 3 replicates)
- M34N Y60K D62W -> 5.5 µM (2 of 3 replicates)
- M34A G100P G102P -> 8.9 µM (1 of 3 replicates)
- M34I Y108F -> 43 µM (3 of 3 replicates)
- D31W M34W G59F -> no signal (0 of 3 replicates)
- M34H S52E G56M -> 160 µM (1 of 3 replicates)
- M34I V99H Y105T -> 400 µM (1 of 3 replicates)
- F27N M34N I51G -> 140 µM (1 of 3 replicates)
- Y32M M34H G100H -> 490 µM (1 of 3 replicates)
- D30L M34P D107G -> no signal (0 of 3 replicates)
- M34I H35N W53N -> no signal (0 of 3 replicates)
- M34I S55D G102L -> no signal (0 of 3 replicates)
- M34D R101F -> 33 µM (3 of 3 replicates)
- M34I G50P -> no signal (0 of 3 replicates)
- T28H M34T G100S -> 64 µM (1 of 3 replicates)
- Y32L M34I K65P -> no signal (0 of 3 replicates)
- D30Y M34S G100L -> 6.0 µM (1 of 3 replicates)
- M34T G56E S63K -> no signal (0 of 3 replicates)
- M34W N54G Y60G -> 61 µM (1 of 3 replicates)

The first 3 variants above that were never detected:

- M34W G50V S57C = no signal (0 of 3 replicates)
- M34A I51G G104I = no signal (0 of 3 replicates)
- D31V M34G G104D = no signal (0 of 3 replicates)